Patent US20170001956A1, “HYDROCARBYL CARBOXYBETAINE AND METHOD FOR PREVENTING HOFMANN ELIMINATION IN ALKALINE ENVIRONMENT” (NATIONAL CHUNG CHENG UNIVERSITY, priority 2015, published 2017)

Amino acid sequences for entries named in this document (tags omitted). Residues count along the entry.
UniProt P02769, 25-607: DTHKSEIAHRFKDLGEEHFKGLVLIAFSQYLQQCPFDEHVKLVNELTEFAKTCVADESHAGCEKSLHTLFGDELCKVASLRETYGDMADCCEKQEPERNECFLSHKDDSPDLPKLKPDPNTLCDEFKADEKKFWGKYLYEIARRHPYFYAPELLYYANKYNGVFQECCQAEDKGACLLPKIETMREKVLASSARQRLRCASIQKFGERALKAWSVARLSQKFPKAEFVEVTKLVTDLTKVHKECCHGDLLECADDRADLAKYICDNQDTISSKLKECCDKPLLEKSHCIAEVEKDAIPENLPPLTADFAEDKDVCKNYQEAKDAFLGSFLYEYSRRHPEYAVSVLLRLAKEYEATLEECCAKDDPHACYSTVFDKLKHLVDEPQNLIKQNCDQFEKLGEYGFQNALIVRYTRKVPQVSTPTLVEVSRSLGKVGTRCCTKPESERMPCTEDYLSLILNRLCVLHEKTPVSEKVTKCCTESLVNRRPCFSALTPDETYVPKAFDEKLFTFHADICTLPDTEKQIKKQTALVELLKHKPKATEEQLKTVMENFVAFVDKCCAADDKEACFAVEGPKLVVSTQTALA

Columns and labels:
[1] = target: T1, bovine serum albumin (BSA) (Bos taurus, UniProt P02769); test: Test 2: protein adsorption test at different pH values, before and after 1M NaOH, optical fiber bio-sensing system
[2] = target: T1, bovine serum albumin (BSA); test: Test 1: nonspecific adsorption resistance before and after 1M NaOH treatment, optical fiber bio-sensing system; conditions: self-assembled nano thin film on nano-gold optical fiber; 49 mg/ml BSA; PBS rinse; FIG. 3

## CC(C[N+](C)(C)CCSSCC[N+](C)(C)CC(C)C(=O)O)C(=O)O (stereo not drawn) [α-mCB, carboxy-alpha-methyl-betaine disulfide]
[1]; 49 mg/ml BSA, buffer of different pH, FIG. 4
  nonspecific adsorption resistance in different pH values: excellent nonspecific adsorption resistance
[1]; self-assembled nano thin film, treatment with 1M NaOH
  Hofmann elimination: does not undergo Hofmann elimination
[2]
  nonspecific adsorption resistance before and after the treatment of 1M NaOH solution: no evident difference
